# ERp5 block: inhibitors of human ERp5 | Q15084 | ERp5 insulin aggregation, absorbance 650 nm, 90 min | inhibition, % at 9.99 µM | actives 0.05% (n = 350,000) | AID 651711;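 active = mean replicate inhibition above about 25%, with every replicate also reaching it, limit read from the data, passing the limit was not always enough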
# UUG fidelity: yeast start codon fidelity modulation; activity score, % at 18.7 µM; actives 0.13% (n = 350,000); S. cerevisiae UUG-firefly luciferase reporter, luminescence/redox ratio; AID 602363;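 active means replicate mean at a twofold rise or more, about +100% in these data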;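 further: firefly luciferase made from a UUG start codon reports start codon fidelity; reporter light over untreated wells divided by growth signal over untreated wells; some hits fall short of that in this replicate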
# FGF22 binding: shifts melting point of recombinant human FGF22. recombinant FGF22 thermal shift, SYPRO orange fluorescence; percent of sucrose octasulfate shift, DMSO zero. Q9HCT0. activity (Tm shift, normalised), % at 9.99 µM. actives 1.5% (n = 340,000);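 active = mean Tm shift, scaled 0 neutral to 100 positive control, at about 1.3% or above, every replicate too, limit read from the data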
# PDI turbidity: PDI (human) enzyme inhibition; P07237; PDI insulin aggregation turbidity, A650, 90 min; inhibition, % at 10 µM; actives 0.052% (n = 350,000);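 active = mean inhibition across replicates of 30% or more, whatever share of single replicates reach that level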
# S100A4 MyoIIA: inhibitors of human S100A4 binding to myosin IIA peptide. P26447. S100A4/TAMRA-MyoIIA peptide fluorescence polarization. inhibition, % at 10.7 µM. actives 0.14% (n = 360,000). AID 652163;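 active = mean inhibition of at least 70% across replicates, with every replicate also reaching that level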
#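 Assay system: human S100A4 monomer with TAMRA-labelled myosin IIA peptide / Buffer or medium: Calcium-containing HEPES buffer, pH 7.2 / Reagent: TAMRA-labelled myosin IIA heavy-chain peptide probe, 5 nM / Compound: one dose per compound / Timing: polarization read 5 min after assay mix addition, stable 5–60 min / Benchmarks: neutral control DMSO, positive control TFP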
# SIRT5 block: blocks human SIRT5 desuccinylation of peptide. AID 652115. inhibition, % at 15 µM. actives 1.1% (n = 330,000). Purified SirT5, succinyl-peptide AMC, trypsin-coupled fluorescence; in the data active = inhibition above about 15%
# An asterisk follows results filed as active; . = no result. In the library only some 2.2% were active in any assay of this set; here they are far more common.
1	CCN(C(=O)COC(=O)CNC(=O)c1ccccc1C)C1=CCCCC1
2	Cc1ccccc1C(=O)NCC(=O)OCC(=O)NNC(=O)c1ccccc1F
3	CNS(=O)(=O)c1ccc(NC(=S)Nc2ccc3c(c2)OCO3)cc1
4	O=C(Nc1ccc2c(c1)OCO2)c1ccc(S(=O)(=O)N2CCCC2)cc1
5	CC(=O)Nc1ccc(S(=O)(=O)N2CCCC2C(=O)Nc2ccc3c(c2)OCCO3)cc1 (stereo not drawn)
6	O=C(Nc1cccc(S(=O)(=O)N2CCCC2)c1)c1ccc2c(c1)OCO2

Screen / compound no.	1	2	3	4	5	6
ERp5 block	1	1	1	2	-4	4
PDI turbidity	23	1	0	-4	0	-6
FGF22 binding	0	0	43*	45*	44*	0
UUG fidelity	-17	-14	.	.	-3	.
S100A4 MyoIIA	0	1	-3	2	1	-2
SIRT5 block	24*	-2	-1	1	2	-4

7	CC(=O)Nc1ccc(S(=O)(=O)N2CCCC2C(=O)Nc2ccc(F)cc2)cc1 (stereo not drawn)
8	C[C@@H]1CCCCO[C@H](CN(C)C(=O)C2CCCCC2)[C@@H](C)CN([C@@H](C)CO)C(=O)c2cc(NC(=O)Nc3ccc(F)cc3)ccc2O1
9	COc1ccc(CN2C[C@@H](C)[C@H](OC)CN(C)C(=O)c3ccc(NC(C)=O)cc3OC[C@H]2C)cc1
10	O=C(N[C@H]1CC[C@H](CCNS(=O)(=O)c2cccc(Cl)c2)O[C@@H]1CO)c1ccncc1
11	CN1CCN(C(=S)NC(=O)/C=C/c2ccccc2)CC1
12	O=C(/C=C/c1ccc(Br)cc1)NC(=S)N1CCOCC1

Screen / compound no.	7	8	9	10	11	12
ERp5 block	-3	4	5	13	.	4
PDI turbidity	-4	.	.	.	-2	0
FGF22 binding	0	0	0	0	.	44*
UUG fidelity	-17	-22	.	-11	-6	.
S100A4 MyoIIA	-2	-3	13	0	.	-5
SIRT5 block	-4	6	.	4	.	0

13	CC(C)CC#Cc1cnc2c(c1)C(=O)N([C@H](C)CO)C[C@H](C)[C@H](CN(C)S(=O)(=O)c1cn(C)cn1)O2
14	COc1ccc(N2CC(C(=O)N/N=C/c3c[nH]c4ccccc34)CC2=O)cc1 (stereo not drawn)
15	COc1ccc(N2CC(C(=O)N/N=C/c3ccccc3)CC2=O)cc1 (stereo not drawn)
16	CO[C@@H]1CN(C)C(=O)c2ccc(NS(=O)(=O)c3ccccc3)cc2OC[C@@H](C)N(Cc2cccnc2)C[C@@H]1C
17	C[C@H]1CCCCO[C@@H](CN(C)S(=O)(=O)c2ccc(F)cc2)[C@@H](C)CN([C@@H](C)CO)C(=O)c2cc(NC(=O)Nc3cccc4ccccc34)ccc2O1
18	COc1ccc(Nc2oc(COc3ccccc3OC)nc2C#N)cc1

Screen / compound no.	13	14	15	16	17	18
ERp5 block	-5	0	5	.	-3	-2
PDI turbidity	.	22	-5	.	.	-26
FGF22 binding	0	44*	0	0	0	0
UUG fidelity	6	.	9	.	.	.
S100A4 MyoIIA	-11	11	0	.	-5	-2
SIRT5 block	-8	3	-3	-2	-21	28*

19	COc1ccccc1OCc1nc(C#N)c(NCCCn2ccnc2)o1
20	CCOC(=O)C1=C(C)Nc2ccccc2N=C1NC(=O)/C=C/c1ccc(OC)cc1OC
21	CCN(CC)C(=O)CSc1nnc([C@H](Cc2c[nH]c3ccccc23)NC(=O)OC(C)(C)C)o1
22	CCSc1nnc([C@H](Cc2c[nH]c3ccccc23)NC(=O)OC(C)(C)C)o1
23	CCC(=O)N1CCc2cc(Br)cc(S(=O)(=O)N3CCCC(C(=O)NC(C)(C)C)C3)c21 (stereo not drawn)
24	CO[C@H]1CN(C)C(=O)c2ccc(NS(=O)(=O)c3ccc(Cl)cc3)cc2OC[C@@H](C)N(C)C[C@@H]1C

Screen / compound no.	19	20	21	22	23	24
ERp5 block	1	-3	.	.	-4	-2
PDI turbidity	7	2	56*	49*	3	.
FGF22 binding	0	44*	.	.	43*	0
UUG fidelity	-1	.	7	-19	21	1
S100A4 MyoIIA	-2	-3	.	.	-1	8
SIRT5 block	0	0	.	.	0	5

25	CC(=O)NC(c1cccs1)c1cc(F)c2cccnc2c1O (stereo not drawn)
26	CC(=O)NC(C)c1cc(Cl)c2cccnc2c1O (stereo not drawn)
27	CC(=O)NC(c1ccco1)c1cc(F)c2cccnc2c1O (stereo not drawn)
28	CCC(=O)NC(C)c1cc(Cl)c2cccnc2c1O (stereo not drawn)
29	C=C1c2cccc(O)c2C(=O)C2C(=O)[C@]3(O)C(=O)C(C(N)=O)C(=O)[C@@H](N(C)C)[C@@H]3[C@@H](O)[C@H]12 (stereo partly drawn)
30	COc1ccc(NC(=O)N[C@@H]2CC[C@H](CCn3cc(-c4ccccn4)nn3)O[C@H]2CO)cc1

Screen / compound no.	25	26	27	28	29	30
ERp5 block	-2	2	-7	-3	1	-4
PDI turbidity	1	-1	3	2	14	.
FGF22 binding	43*	45*	0	0	0	0
UUG fidelity	0	-16	-11	-26	-7	-21
S100A4 MyoIIA	0	-2	-9	2	-1	1
SIRT5 block	-2	-3	1	.	46*	3

# Record cards (already shown). Screens in order: ERp5 block	PDI turbidity	FGF22 binding	UUG fidelity	S100A4 MyoIIA	SIRT5 block
# COc1ccc(NC(=O)N[C@@H]2CC[C@H](CCn3cc(-c4ccccn4)nn3)O[C@H]2CO)cc1 is listed as -4	.	0	-21	1	3
# CCC(=O)NC(C)c1cc(Cl)c2cccnc2c1O (stereo not drawn) is listed as -3	2	0	-26	2	.
# CC(=O)NC(C)c1cc(Cl)c2cccnc2c1O (stereo not drawn) is listed as 2	-1	45*	-16	-2	-3

# Next records follow:
31	Cc1ccc(S(=O)(=O)Nc2ccc3c(c2)C(=O)N([C@@H](C)CO)C[C@H](C)[C@H](CN(C)C)O3)cc1
32	N#C/C(=C(/O)CSc1ncn[nH]1)c1nc2ccccc2[nH]1
33	COc1ccc(S(=O)(=O)N(C)C[C@@H]2OCCCC[C@@H](C)Oc3ccc(NC(=O)Nc4cccc5ccccc45)cc3C(=O)N([C@@H](C)CO)C[C@H]2C)cc1
34	CC(C)NC(=O)Nc1ccc2c(c1)C(=O)N([C@H](C)CO)C[C@@H](C)[C@H](CN(C)S(=O)(=O)c1ccccc1)OCCCC[C@@H](C)O2
35	CC(C)NC(=O)Nc1ccc2c(c1)C(=O)N([C@@H](C)CO)C[C@H](C)[C@@H](CN(C)S(=O)(=O)c1ccccc1)OCCCC[C@H](C)O2
36	COc1ccc(S(=O)(=O)N(C)C[C@H]2OCCCC[C@H](C)Oc3ccc(NC(=O)Nc4ccc(F)cc4)cc3C(=O)N([C@H](C)CO)C[C@@H]2C)cc1
37	COc1ccc(S(=O)(=O)N(C)C[C@@H]2OCCCC[C@H](C)Oc3ccc(NC(=O)Nc4ccc(F)cc4)cc3C(=O)N([C@H](C)CO)C[C@H]2C)cc1
38	COc1ccc(NC(=O)N(C)C[C@H]2Oc3ccc(NS(=O)(=O)c4ccc(F)cc4)cc3C(=O)N([C@@H](C)CO)C[C@H]2C)cc1
39	O=C(CN1CCOCC1)N1CCCCN2[C@H](CO)[C@H](c3ccc(C#Cc4ccccc4F)cc3)[C@@H]2C1

Screen / compound no.	31	32	33	34	35	36	37	38	39
ERp5 block	0	0	2	-2	-5	1	-2	3	1
PDI turbidity	.	-8	.	.	.	.	.	.	.
FGF22 binding	0	44*	1.3*	-1	1	0	-1	0	-1
UUG fidelity	-9	.	-14	23	9	-13	-8	14	44
S100A4 MyoIIA	1	7	-6	121*	-11	-19	-2	3	-18
SIRT5 block	-2	-3	3	5	1	17*	17*	3	5

# Bioassay records as filed in PubChem.
